The source of these data is patent US20090068290A1, “BIFEPRUNOX DOSES FOR TREATING SCHIZOPHRENIA” (priority 2006, published 2009).

Data set [1] in a line: Body weight, Clinical Study Three. The note with it: olanzapine 15 mg.
The test system of data set [2] is adult subjects with schizophrenia. Put plainly: Adverse events (TEAE, SAE, special interest, discontinuation, EPS-related TEAE), Clinical Study Three. The note with it: olanzapine 15 mg. The protocol: There were four treatment arms in this study, approximately 144 subjects per arm. […] After completing the Single-Blind Placebo Lead-in Period of at least three days, bifeprunox-treated subjects were titrated from 0.25 mg up to 20 mg/day or 30 mg/day according to a standardized titration scheme over a seven- or eight-day period, respectively. When the assigned dose was reached, subjects were maintained at that dose for the remainder of the six week treatment period. […] Subjects were hospitalized (if not already inpatients) after eligibility for study entry was verified, starting from the Screening Visit until at least 10 days after Baseline. Subjects could be hospitalized longer than 10 days if considered medically necessary by the Investigator. Rating scale assessments for efficacy and abnormal movement disorders were done weekly except for Week 5. Safety assessments were performed at Screening, during treatment and at the end of the study. Subject satisfaction with study medication was assessed at Week 6. Samples of whole blood were obtained at Weeks 2, 4, and 6 for determination of bifeprunox in plasma.
EPS were assessed using treatment-emergent adverse events such as akathisia, dyskinesia, parkinsoniam, etc. and/or formal rating scales such as SAS, BAS, and/or AIMS.

Data set [3] is described as follows: Pooled metabolic analysis, 6-week studies: body weight. The note with it: 6-week placebo controlled trials, baseline BMI All; BX total doses, RISP 6 mg, OLZ 15 mg, HAL 10 mg. The text has this: OBJECTIVE: To examine the metabolic effects of bifeprunox in patients with acute and stable schizophrenia.
METHODS: Metabolic data was compiled from one 6-month and four 6-week studies (i.e., a treatment period) of bifeprunox in patients with stable and acute schizophrenia, respectively. In the 6-month study, patients received bifeprunox (n=331) or placebo (PBO) (n=166). […] Metabolic evaluations included body weight, body mass index (BMI), plasma glucose and lipid profiles. Fasting glucose and lipid values were assessed in one 6-week study and in the 6-month study. Triglyceride:HDL ratio (TG:HDL) was calculated as a marker of insulin resistance. No statistical analyses were performed; only descriptive statistics are presented.

`Cc1cc2c(s1)Nc1ccccc1N=C2N1CCN(C)CC1` [Olanzapine, olanzapine, reference compound]: in data set [1], the “Weight, Baseline Mean of subjects with Endpoint change” value is recorded as 173.7 lbs; the “Weight, Baseline Mean of subjects with Week 6 change” value turned out to be 173.1 lbs; the “Weight, Baseline, Median” value is recorded as 173 lbs; the “incidence of markedly abnormal (≧7%) increases in body weight” value is 19%. Moreover, the “mean weight change at Endpoint” value in data set [1] stood at 5.2 lbs. In addition, in data set [2], the “incidence of dizziness (TEAE of special interest)” value was determined as 5%, the “incidence of extrapyramidal disorder” value is listed as 1%, the “subjects who discontinued study medication due to an AE” value turned out to be 6% and the “subjects with at least one AE that led to study termination” value is 6%. For the same molecule, in data set [2], the “subjects with at least one SAE” value worked out at 4%, the “subjects with at least one TEAE” value is reported as 73%, the “subjects with at least one severe TEAE” value is 6% and the “subjects with at least one special interest TEAE” value amounted to 7%.

On to `Cc1cc2c(s1)Nc1ccccc1N=C2N1CCN(C)CC1` [OLZ], for which the “≧7% weight increase, (%)” value in data set [3] was determined as 17.3%.
